Assay results reported in paper doi:10.1101/2024.05.30.596569v1 (bioRxiv, 2024).

Test: Solubility in water
Assay type: physicochemical
Conditions: unformulated compounds, statement in words

**Q.** With `C[C@@H](O)[C@@H]1NC(=O)[C@H]2NC(=O)[C@H](CC(N)=O)NC(=O)[C@@H](N)Cc3c[nH]c4c(cccc34)OC2c2c[nH]c3cc(ccc23)C(CCCN)[C@@H](C(=O)N[C@@H](CCCNC(=N)N)C(=O)N[C@@H](Cc2c[nH]c3ccccc23)C(=O)O)NC1=O` (stereo partly shown) as the compound, how does the solubility in water read?
**A.** highly soluble in water
